Molecular target: 5-hydroxytryptamine receptor 5A (Mus musculus, UniProt P30966)

By UniProt entry, the sequences of proteins in these tests, tags left out.
UniProt P30966, whole entry: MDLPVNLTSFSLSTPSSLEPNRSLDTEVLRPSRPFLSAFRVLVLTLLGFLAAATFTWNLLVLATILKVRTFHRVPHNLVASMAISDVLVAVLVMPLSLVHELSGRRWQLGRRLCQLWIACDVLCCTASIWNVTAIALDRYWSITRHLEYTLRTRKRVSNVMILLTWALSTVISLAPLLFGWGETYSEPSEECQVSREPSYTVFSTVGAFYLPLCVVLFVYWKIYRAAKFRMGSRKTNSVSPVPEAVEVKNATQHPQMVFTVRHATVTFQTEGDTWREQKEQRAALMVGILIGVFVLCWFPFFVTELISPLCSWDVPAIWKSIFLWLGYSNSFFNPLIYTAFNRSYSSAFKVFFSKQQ

For `NCCc1c[nH]c2ccc(O)cc12` [[3H]-5-HT], the Ki was 251 nM.

Reference: BindingDB's records for PubMed 1464308 (Cnrs, 1992)
